Each structure is given as a SMILES string. This is a selection; strong and weak results do not stand in their true shares. Activity calls are given as the source filed them.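 The calls were made as follows: active = ratio signal rise beyond 5 SD above unstimulated control wells' mean, seen in both duplicate runs; inactive = the rest.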

Protein sequences, listed by entry. Tags and fused reporters are not part of them.
UniProt Q61143, whole entry: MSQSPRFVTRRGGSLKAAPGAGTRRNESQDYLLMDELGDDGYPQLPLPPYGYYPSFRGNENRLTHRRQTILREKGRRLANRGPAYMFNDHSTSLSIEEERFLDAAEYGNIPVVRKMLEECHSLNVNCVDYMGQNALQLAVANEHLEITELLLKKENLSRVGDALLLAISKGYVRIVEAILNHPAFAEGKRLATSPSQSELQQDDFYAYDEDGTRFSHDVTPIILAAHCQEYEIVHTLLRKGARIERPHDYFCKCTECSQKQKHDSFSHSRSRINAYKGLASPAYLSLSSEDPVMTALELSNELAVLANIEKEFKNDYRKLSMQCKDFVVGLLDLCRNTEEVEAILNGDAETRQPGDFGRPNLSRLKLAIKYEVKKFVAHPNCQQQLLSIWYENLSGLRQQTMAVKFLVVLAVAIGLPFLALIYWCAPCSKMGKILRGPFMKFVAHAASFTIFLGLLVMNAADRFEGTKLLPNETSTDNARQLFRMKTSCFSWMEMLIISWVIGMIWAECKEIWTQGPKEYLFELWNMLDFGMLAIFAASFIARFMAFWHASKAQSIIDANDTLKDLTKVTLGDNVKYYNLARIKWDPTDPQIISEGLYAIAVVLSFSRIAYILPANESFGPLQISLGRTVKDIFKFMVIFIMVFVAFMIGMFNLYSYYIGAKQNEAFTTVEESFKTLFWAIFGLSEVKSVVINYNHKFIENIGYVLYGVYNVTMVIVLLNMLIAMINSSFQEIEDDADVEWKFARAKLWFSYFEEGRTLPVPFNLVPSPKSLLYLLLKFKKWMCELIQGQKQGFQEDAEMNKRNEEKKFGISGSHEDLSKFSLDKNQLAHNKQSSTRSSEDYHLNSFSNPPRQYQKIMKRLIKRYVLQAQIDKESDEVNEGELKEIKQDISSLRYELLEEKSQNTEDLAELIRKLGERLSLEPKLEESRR

For this experiment, the target named is Short transient receptor potential channel 6 (Mus musculus) (UniProt Q61143). The experiment is described as follows: mouse TRPC6 channel activators, confirmation, HEK293 cells, membrane potential dye, duplicate (AID 488961). The settings on record: HEK293-TRPC6 membrane potential dye fluorescence, FDSS; at 10 µM.
Regarding `CCN(CC)CCCOC(=O)C(O)(c1ccccc1)c1ccccc1`, the outcome was inactive.

As for `CN(C)CCOC(=O)C(O)(c1ccccc1)C1CCCC1` (stereo not drawn), the result was inactive.

On to `CN(C)CCOC(=O)C(O)(c1ccccc1)C1CCCCC1` (stereo not drawn), for which the compound was classed as inactive.

The values are drawn from PubChem BioAssay AID488961 (Johns Hopkins Ion Channel Center, 2010).
